Screening results as filed in PubChem BioAssay.
A549 tox – kills or reduces viability of A549 cells in Nrf2 counter-screen | A549 ARE-Fluc cells, CellTiter-Fluor viability, 18-24 h | Potency, µM (series often up to 46 µM), for the others: top-dose activity change, negative = cytotoxicity, usual class: inhibitors | 0.16% of 390,000 active | AID 504648; note: potency is the fitted concentration of half-maximal effect; % is set by controls: 0 for no effect and ±100 for the full control effect
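A549 ARE_Fluc cells in 5% FBS OPTI-MEM were exposed to compounds in concentration-response for 18-24 h at 37 deg C. Viability was read by CellTiter-Fluor fluorescence (Ex 405/Em 525) after 30 min, before the luciferase read.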
Nrf2 block – Nrf2 pathway inhibition. A549 ARE-Fluc reporter, luciferase luminescence, 18-24 h. Potency, µM (doses to about 46 µM), for inactives: at the top dose activity change, negative = inhibition, actives largely listed as inhibitors. 2.1% of 360,000 active; note: potency is the fitted concentration of half-maximal effect; % is set by controls: 0 for no effect and ±100 for the full control effect; nearly all actives have a fitted effect of over 60% in size
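Quantitative HTS in A549 cells stably bearing an antioxidant response element-firefly luciferase construct. Inhibition of Nrf2-driven transcription was scored by luminescence after 18-24 h of compound exposure at 37 °C.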
Nrf2 activator – activates Nrf2 signaling | Potency, µM (doses to about 46.1 µM), for inactives: top-dose activation, hits mostly activators | AID 624171 | AREc32 ARE-luciferase reporter (MCF7-derived line), luminescence, 24 h | 0.31% of 410,000 active; note: potency is the fitted concentration of half-maximal effect; % of control where 0% means no effect; nearly all actives have a fitted effect of over 65% in size
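Luminescent ARE reporter assay in AREc32_Fluc cells: overnight plating at 37 deg C, 24 hr compound incubation, Steady-Glo added, 30 min RT before reading.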
Mito fusion yeast – mitochondrial division inhibition or fusion activation. S. cerevisiae fusion-defective mutant growth rescue, CellTiterGlo 48 h. Potency, µM (titrated, usually from 46.1 µM), inactives show at the highest dose growth rescue (activation), hits mostly activators. 0.23% of 320,000 active; note: potency is the fitted concentration of half-maximal effect; % of control where 0% means no effect; nearly all actives have a fitted effect of over 45% in size
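Temperature-sensitive fusion-defective S. cerevisiae (e.g. fzo1-1, mgm1-5) were grown with compound in YPEG medium (3% ethanol, 3% glycerol) for 48 hours at 37C. Growth rescue was measured as viability by CellTiterGlo luminescence after 10 minutes at ambient.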
miR-21 reporter – miR-21 reporter, rising signal; HeLa miR-21 FLuc reporter, luciferase, 48 h; Potency, µM (titrated, usually from 38.3 µM), for the others: at the top dose reporter change, positive = more light; 340,000 tested, under 10 active; AID 2288; active = well fitted rising curve with a large enough effect; inconclusive = small, poorly fitted or top-dose-only effect; inactive = no such curve, though single readings can be large or run the other way;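 also: % of control where 0% means no effect; miR-21 action dims this reporter so a rising signal means less miR-21 action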
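HeLa cells endogenously expressing miR-21, stably carrying CMV-driven firefly luciferase with a downstream miR-21 binding site, 2000 cells/well. Titrations up to approximately 40 uM, 48 hours; luciferase luminescence read.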
* marks the source's active call; other numbers are inactive results; u = inconclusive; x = no result. The list is not random: actives were taken first. Their share in the collection is about 2.3%. Unless noted, calls come from the whole dose curve; as a rule, active = well fitted curve in the direction sought with a large enough effect; inconclusive = small, poorly fitted or top-dose-only effect, or another doubt; inactive = no such curve, though single readings can be large; an effect the other way counts as inactive or inconclusive.

1	Fc1ccc(N2CCN(c3ncnc4c3nnn4Cc3ccccc3Cl)CC2)cc1
2	CC(/C=N/n1c(-c2ccc(Cl)cc2)n[nH]c1=S)=C\c1ccco1
3	CC(/C=N/n1cnnc1)=C\c1ccco1
4	CC(/C=N/n1c(-c2cc(C)[nH]n2)n[nH]c1=S)=C\c1ccco1
5	CCN(CC)c1ccc(-n2nc3cc(C)c(NC(=O)c4ccccc4F)cc3n2)cc1
6	CCC(C)(C)n1nnnc1CN1CCN(c2nc3cc(OC)ccc3cc2C#N)CC1
7	Cc1ccc2nc(N3CCN(Cc4nnnn4C4CCCC4)CC3)c(C#N)cc2c1
8	Cc1ccc(C)c(N2CCN(Cc3nnnn3C3CCCCC3)CC2)c1
9	CC1CCC(NC(=O)c2ccc3c(c2)S(=O)(=O)c2ccccc2C3=O)CC1 (stereo unspecified)
10	COc1ccc2cc(C(=O)N3CCN(Cc4ccc5c(c4)OCO5)CC3)[nH]c2c1

assay / entry	1	2	3	4	5	6	7	8	9	10
A549 tox	2%	-7%	-1%	-12%	1%	-14%	1%	13%	-13%	-26%
Nrf2 block	13µM*	13%	12%	-9%	9%	18µM*	23µM*	x	16µM*	21µM*
Nrf2 activator	-1%	2.8µM*	11µM*	5%	-1%	0%	-1%	0%	4%	3%
Mito fusion yeast	x	10%	1%	-1%	x	28%	20%	21%	x	-2%
miR-21 reporter	x	7%	-9%	1%	-10%	-4%	0%	1%	x	6%

11	CCOC(=O)c1ccccc1NC(=O)Cn1ccn2nc(-c3ccc(OCC)cc3)cc2c1=O
12	Cc1ccc(CC(=O)Nc2nc3ccccc3s2)cc1
13	Cc1nc2c(ccc3nc(NC(=O)Cc4ccccc4)sc32)s1
14	Cc1ccc(NC(=O)C(Nc2ccccc2)c2ccccc2)cc1 (stereo unspecified)
15	Cc1ccc(NC(=O)C(C)c2ccc(-c3ccccc3)c(F)c2)cc1 (stereo unspecified)
16	Cc1ccc(NC(=O)c2ncc(Cl)c(Cl)c2Cl)cc1C
17	O=C(Nc1ccc(OC(F)F)cc1)c1ncc(Cl)c(Cl)c1Cl
18	COc1cc(NC(=O)Nc2c[nH]c(=O)[nH]c2=O)cc(OC)c1OC
19	CC1CCCC(NC(=O)NC(=O)CCl)C1C (stereo unspecified)
20	CC1CCCCC1NC(=O)NC(=O)CCl (stereo unspecified)

assay / entry	11	12	13	14	15	16	17	18	19	20
A549 tox	1%	-6%	-10%	5%	u	0%	6%	8%	1%	-10%
Nrf2 block	x	20%	15%	-1%	15µM*	u	1%	u	-2%	0%
Nrf2 activator	0%	2%	8%	4%	0%	6%	7.1µM*	0%	u	14µM*
Mito fusion yeast	x	1%	11µM*	26%	-1%	-3%	-7%	x	-9%	-12%
miR-21 reporter	0%	-37%	-52%	-16%	18%	-34%	11%	-2%	24%	19%

21	O=C1CCc2cc(S(=O)(=O)Nc3ccc4c(c3)OCCO4)ccc2N1
22	CCCCNC(=O)c1nn(C)c2c1CSc1ccccc1-2
23	CCOc1ccccc1NC(=O)c1nn(C)c2c1CSc1ccccc1-2
24	CC1CCCC(C)N1CCCNC(=O)c1nn(C)c2c1CSc1ccccc1-2 (stereo unspecified)
25	COc1ccc(Cn2c(C(=O)O)c(CNCc3ccc(OC)cc3OC)c3ccc(C)cc32)cc1
26	CCOc1ccccc1CNCc1c(C(=O)O)n(Cc2ccc(F)cc2)c2cc(C)ccc12
27	C=Cc1ccc(Cn2c(C(=O)O)c(CNCc3cccs3)c3ccc(C)cc32)cc1
28	C=Cc1ccc(Cn2c(C(=O)O)c(CNCc3ccc(F)cc3)c3ccc(C)cc32)cc1
29	Cc1ccc2c(CNCc3cccs3)c(C(=O)O)n(Cc3ccc(F)cc3)c2c1
30	COc1ccc(Cn2c(C(=O)O)c(CNCc3cccs3)c3ccc(C)cc32)cc1

assay / entry	21	22	23	24	25	26	27	28	29	30
A549 tox	8%	-15%	-13%	0%	13µM*	18µM*	15µM*	u	12µM*	u
Nrf2 block	u	21µM*	18µM*	u	u	u	-27%	-2%	-22%	-22%
Nrf2 activator	x	15%	3%	0%	4%	0%	0%	-2%	4%	6%
Mito fusion yeast	x	x	x	16%	x	x	x	x	x	x
miR-21 reporter	x	-6%	21%	-3%	0%	-7%	21%	u	15%	14%

31	CC(=O)Nc1ccc(S(=O)(=O)N2CCCN(S(=O)(=O)c3ccc4c(c3)OCCO4)CC2)cc1
32	COc1ccc(S(=O)(=O)N(CC(=O)N(C)Cc2ccccc2)c2ccc(Cl)cc2)cc1
33	COCCCNC(=O)/C=C1\Sc2ccccc2N(Cc2ccccc2F)C1=O
34	CCc1cc2c(cc3c(=O)n(CCCC(=O)NCc4cccc(Br)c4)ncn32)s1
35	O=C(/C=C/c1c(F)cccc1Cl)Nc1ncccn1
36	O=C(/C=C/c1c(F)cccc1Cl)c1ccc(O)cc1
37	Cc1cccc(-n2ncc3c(N4CCCC(C)C4)ncnc32)c1 (stereo unspecified)
38	COc1ccc(C2Nc3ccccc3C(=O)N2Cc2ccccc2)cc1Oc1ccc(NC(C)=O)cc1 (stereo unspecified)
39	COc1cc2c(cc1OC)/C(=C/c1ccc(Br)cc1)C(=O)OC2
40	CCOC(=O)c1ccc(N2C(=O)C3C(C2=O)C(C(=O)c2ccc(Cl)cc2)N2CCCC32)cc1 (stereo unspecified)

assay / entry	31	32	33	34	35	36	37	38	39	40
A549 tox	-10%	-7%	5%	0%	-5%	-3%	16%	-11%	4%	-16%
Nrf2 block	u	-8%	3%	-5%	u	-15%	x	u	-16%	14%
Nrf2 activator	x	0%	11µM*	-2%	7.9µM*	13µM*	-1%	x	u	14µM*
Mito fusion yeast	x	x	12%	x	20%	3%	x	x	16µM*	-3%
miR-21 reporter	x	4%	-57%	16%	-67%	-5%	u	x	12%	-9%

41	CCOC(=O)c1ccc(N2C(=O)C3CC=CCC3C2=O)cc1 (stereo unspecified)
42	CCCCNc1sc(S(=O)(=O)CCC)nc1S(=O)(=O)c1ccc(C)cc1
43	CCCCC[C@H]1CN(CCCC)C(=O)[C@@H]1CC(=O)NCc1ccc(OC)cc1
44	CCCCC[C@H]1CN(CCc2ccccc2)C(=O)[C@@H]1CC(=O)NCc1ccc(OC)cc1
45	CC(=O)N1CCOc2ccc(S(=O)(=O)N3CCC(C(=O)Nc4ccc(F)cc4)CC3)cc21
46	O=C(Nc1ccc2c(c1)OCO2)C1CCN(S(=O)(=O)c2ccc3c(c2)OCCO3)CC1
47	COc1ccc(S(=O)(=O)N2CCC(C(=O)Nc3ccc4c(c3)OCCO4)CC2)cc1OC
48	CC(=O)N1CCOc2ccc(S(=O)(=O)N3CCC(C(=O)Nc4ccc(C)c(C)c4)CC3)cc21

assay / entry	41	42	43	44	45	46	47	48
A549 tox	2%	3%	-6%	u	-3%	-7%	2%	-18%
Nrf2 block	10%	-26%	-12%	26µM*	u	u	21µM*	16µM*
Nrf2 activator	0%	0%	-1%	5%	0%	2%	0%	0%
Mito fusion yeast	0%	x	8%	14%	-1%	-1%	1%	3%
miR-21 reporter	-17%	9%	15%	20%	17%	-6%	-3%	14%
